# Test results reported in ChEMBL document CHEMBL1131467, “Identification and initial structure-activity relationships of a novel class of nonpeptide inhibitors of blood coagulation factor Xa” (J Med Chem, 1998).
# By UniProt entry, the sequences of proteins in these tests, tags left out. Residues count along the entry.
# UniProt P00742, 41-179 limits assumed: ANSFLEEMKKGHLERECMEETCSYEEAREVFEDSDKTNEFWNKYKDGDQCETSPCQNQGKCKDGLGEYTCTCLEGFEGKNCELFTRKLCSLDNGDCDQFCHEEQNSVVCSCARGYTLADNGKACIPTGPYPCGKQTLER
# UniProt P00742, 235-488 limits assumed: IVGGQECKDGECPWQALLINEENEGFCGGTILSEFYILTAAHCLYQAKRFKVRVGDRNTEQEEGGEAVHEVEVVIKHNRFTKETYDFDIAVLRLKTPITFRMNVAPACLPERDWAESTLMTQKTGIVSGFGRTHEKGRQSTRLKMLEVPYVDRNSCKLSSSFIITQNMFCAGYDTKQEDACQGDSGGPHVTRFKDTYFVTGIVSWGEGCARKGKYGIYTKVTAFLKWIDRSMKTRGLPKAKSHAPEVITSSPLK
# Target: Coagulation factor X (Homo sapiens, UniProt P00742)
# Assay: Inhibitory activity against human Coagulation factor X
# Procedure, shortened: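 Human factor Xa at 1 nM final, in 0.05 M Tris, 0.15 M NaCl, 0.1% PEG-8000, pH 7.5, room temperature. Compound preincubated with enzyme 30 min, then Spectrozyme FXa added (200 μM final). Read continuously at 405 nm for 5 min; under 10% of substrate consumed. Run in triplicate. IC50 taken from initial velocities; Ki by Cheng-Prusoff, assuming competitive inhibition.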
compound,measurement,value
COC(=O)C(Cc1cccc(C(=N)N)c1)C(/C=C/c1ccccc1)NC(=O)Cc1ccc(-c2ccccc2)cc1 (stereo unspecified),IC50,1130 nM
